# Results from PMC12836348, “Alanine Mutagenesis Identifies Specific Amino Acids of Nemertide Alpha‑1 Activity and Its Binding to Target Receptors” (Journal of Natural Products, 2025).
# Sequences of proteins named here, by UniProt entry; tags and fusion partners are left off.
# UniProt Q9UQD0, whole entry: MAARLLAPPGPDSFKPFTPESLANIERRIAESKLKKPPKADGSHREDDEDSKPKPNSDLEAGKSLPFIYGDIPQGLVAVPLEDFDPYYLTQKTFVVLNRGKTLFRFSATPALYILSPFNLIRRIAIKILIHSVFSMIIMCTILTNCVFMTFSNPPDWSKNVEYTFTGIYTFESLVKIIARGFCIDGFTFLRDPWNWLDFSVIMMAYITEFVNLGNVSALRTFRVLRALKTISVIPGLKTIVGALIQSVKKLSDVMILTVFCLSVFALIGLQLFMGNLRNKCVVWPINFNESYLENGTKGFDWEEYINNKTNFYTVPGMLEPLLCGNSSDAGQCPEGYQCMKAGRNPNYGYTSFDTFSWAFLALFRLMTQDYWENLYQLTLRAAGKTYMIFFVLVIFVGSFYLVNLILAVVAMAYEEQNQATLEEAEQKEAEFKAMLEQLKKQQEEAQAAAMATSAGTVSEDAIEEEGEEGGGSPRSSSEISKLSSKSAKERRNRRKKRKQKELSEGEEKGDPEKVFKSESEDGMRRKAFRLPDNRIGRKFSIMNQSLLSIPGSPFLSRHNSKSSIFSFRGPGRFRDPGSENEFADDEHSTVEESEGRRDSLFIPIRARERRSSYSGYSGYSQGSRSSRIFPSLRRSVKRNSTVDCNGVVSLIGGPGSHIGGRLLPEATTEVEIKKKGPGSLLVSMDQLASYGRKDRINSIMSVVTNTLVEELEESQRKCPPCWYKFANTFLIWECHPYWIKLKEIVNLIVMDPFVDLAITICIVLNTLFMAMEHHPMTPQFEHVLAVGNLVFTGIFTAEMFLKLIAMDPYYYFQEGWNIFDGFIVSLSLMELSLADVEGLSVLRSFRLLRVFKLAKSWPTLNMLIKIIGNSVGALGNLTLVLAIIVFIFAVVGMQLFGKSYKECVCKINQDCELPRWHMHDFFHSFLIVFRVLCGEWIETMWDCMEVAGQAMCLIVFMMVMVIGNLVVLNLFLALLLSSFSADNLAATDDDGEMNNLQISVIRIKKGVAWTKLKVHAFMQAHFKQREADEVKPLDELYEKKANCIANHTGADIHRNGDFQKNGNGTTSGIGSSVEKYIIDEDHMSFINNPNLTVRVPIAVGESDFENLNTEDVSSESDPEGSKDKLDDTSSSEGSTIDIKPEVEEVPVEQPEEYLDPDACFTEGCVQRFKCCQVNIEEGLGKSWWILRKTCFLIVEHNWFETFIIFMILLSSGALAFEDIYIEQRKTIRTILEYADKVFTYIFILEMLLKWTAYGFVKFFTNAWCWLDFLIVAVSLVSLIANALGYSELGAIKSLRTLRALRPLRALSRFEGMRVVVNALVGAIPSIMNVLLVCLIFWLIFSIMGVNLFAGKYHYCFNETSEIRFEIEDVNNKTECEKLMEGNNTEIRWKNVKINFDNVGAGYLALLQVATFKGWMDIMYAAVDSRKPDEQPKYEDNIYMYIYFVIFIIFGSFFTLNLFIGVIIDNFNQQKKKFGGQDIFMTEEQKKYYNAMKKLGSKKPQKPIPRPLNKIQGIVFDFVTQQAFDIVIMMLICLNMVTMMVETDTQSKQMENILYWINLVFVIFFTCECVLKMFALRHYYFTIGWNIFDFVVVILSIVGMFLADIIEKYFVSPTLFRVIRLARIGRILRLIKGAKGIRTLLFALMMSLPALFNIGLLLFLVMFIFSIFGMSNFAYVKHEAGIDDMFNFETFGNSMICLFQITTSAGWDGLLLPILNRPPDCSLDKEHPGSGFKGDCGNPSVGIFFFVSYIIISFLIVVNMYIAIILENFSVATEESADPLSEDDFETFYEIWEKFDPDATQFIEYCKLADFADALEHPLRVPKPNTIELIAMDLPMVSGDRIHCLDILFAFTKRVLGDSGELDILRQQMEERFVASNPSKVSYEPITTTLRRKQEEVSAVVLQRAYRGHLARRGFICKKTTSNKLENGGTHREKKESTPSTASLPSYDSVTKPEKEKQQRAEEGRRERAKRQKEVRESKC
# Biological target: T1, hNaV1.6 (Homo sapiens, UniProt Q9UQD0)
# T1 construct: expressed in transfected cells; host or cells: Xenopus laevis oocytes (cRNA injection)
# Assay: Two-electrode voltage clamp, Nav1.6 in Xenopus laevis oocytes
# Format: cell-based
# Parameters: key to effect on Nav1.6: “+” means tested and produced effect; “–“ means tested but no effect
# Conditions: S12A at 5 μM; Xenopus oocytes, n ≥ 3
structure (smiles),measurement,value
CC[C@H](C)[C@@H]1NC(=O)[C@@H](NC(=O)CN)CSSC[C@@H]2NC(=O)[C@@H]3CSSC[C@@H](C(=O)N[C@@H](CC(N)=O)C(=O)N4C[C@H](O)C[C@H]4C(=O)N4C[C@H](O)C[C@H]4C(=O)N[C@@H](CC(N)=O)C(=O)N[C@@H](CCC(N)=O)C(=O)O)NC(=O)[C@H](CCCCN)NC(=O)[C@H](Cc4ccccc4)NC(=O)[C@H](CC(N)=O)NC(=O)[C@H](Cc4c[nH]c5ccccc45)NC(=O)CNC(=O)[C@H](CSSC[C@H](NC(=O)[C@H](Cc4ccccc4)NC(=O)[C@H](CO)NC(=O)CNC(=O)[C@H]([C@@H](C)O)NC(=O)[C@H](C)NC1=O)C(=O)N[C@@H]([C@@H](C)O)C(=O)N[C@@H](CC(C)C)C(=O)N[C@@H](C)C(=O)N[C@@H](CCCCN)C(=O)NCC(=O)N3)NC(=O)[C@H](CC(N)=O)NC(=O)[C@H](CCCCN)NC(=O)[C@H]([C@@H](C)O)NC2=O [Peptide S12A],effect on Nav1.6,–
